Ab-91 heavy chain CDR variants: yeast mating affinities

Source: Engelhart et al. 2022 (doi:10.1038/s41597-022-01779-4), MIT Lincoln Laboratory and A-Alpha Bio; data file from the FLAb repository.

Binding partner: SARS-CoV-2 spike HR2 peptide, sequence PDVDLGDISGINAS.

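Phage display of a naive human antibody library on the peptide gave the parent. AAYL51 was designed without a model: most single CDR substitutions and a random sample of double and triple ones. AlphaSeq pools MATa yeast showing the antibodies with MATalpha yeast showing the peptide. The frequency of each diploid, read from paired DNA barcodes, reflects how well the two displayed proteins bind. The ratio of observed to expected reads was calibrated, replicate by replicate, on BCL2-family standards whose Kd was known from biolayer interferometry. Mating was done three times.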

Parent: Ab-91, a human scFv built as VL, a (GGGGS)3 linker, VH. Only the CDRs of the heavy chain vary.
VL: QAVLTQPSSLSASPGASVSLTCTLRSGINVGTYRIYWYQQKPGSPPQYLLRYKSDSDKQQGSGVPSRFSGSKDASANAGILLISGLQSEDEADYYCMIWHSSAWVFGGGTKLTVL
VH: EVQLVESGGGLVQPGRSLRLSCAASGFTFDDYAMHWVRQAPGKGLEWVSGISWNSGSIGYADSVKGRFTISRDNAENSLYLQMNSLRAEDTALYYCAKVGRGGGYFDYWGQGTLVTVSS

Each variant's VH is given in full. Numbers give log10(Kd / nM), so 0 is 1 nM and 3 is 1 µM. Smaller is tighter. "ND" means that the variant was in the library but no mating with the target was seen in that replicate; the authors take this as a sign of poor binding, and no number exists. For reference, the parent read 1.86 as the reference entry and 0.88 as a member of this library. Background: pairings of library AAYL51 with three empty control strains gave a value in 21% of cases (median 4.54, 5th percentile 3.26). Values in that range, when seen in few replicates, are hard to tell from nonspecific mating. For each scFv, signals with the empty controls are counted beside the result, with their mean in brackets.

{"VH": "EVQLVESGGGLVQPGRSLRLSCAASGFVFDDYAMTWVRQAPGKGLEWVSGISWNSGSIGYADSVKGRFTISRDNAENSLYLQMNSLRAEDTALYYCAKAGRGGGYFDYWGQGTLVTVSS", "log10 Kd, replicates": "5.37 ND ND", "control signals": "4/9 (4.98)"}
{"VH": "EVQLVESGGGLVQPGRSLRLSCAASGFTFDDYHMHWVRQAPGKGLEWVSLISWNSGSIGYADSVKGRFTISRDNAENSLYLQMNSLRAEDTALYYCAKVGRGTGYFDYWGQGTLVTVSS", "log10 Kd, replicates": "ND ND ND", "control signals": "1/9 (3.45)"}
{"VH": "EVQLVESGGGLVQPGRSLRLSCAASGFTFDDKAMHWVRQAPGKGLEWVSGISTNPGSIGYADSVKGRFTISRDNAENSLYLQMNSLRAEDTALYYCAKVGRGGGYFDYWGQGTLVTVSS", "log10 Kd, replicates": "4.91 ND 4.55", "control signals": "8/9 (4.94)"}
{"VH": "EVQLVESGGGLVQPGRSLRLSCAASGFTFDDYAMHWVRQAPGKGLEWVSGISWNSGSIGYIDWVKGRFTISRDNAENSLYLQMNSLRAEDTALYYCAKVRRGGGYFDYWGQGTLVTVSS", "log10 Kd, replicates": "ND ND ND", "control signals": "4/9 (4.68)"}
{"VH": "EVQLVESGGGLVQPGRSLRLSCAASGFTFDDYAMHWVRQAPGKGLEWVSGISENSGSIGEADSVKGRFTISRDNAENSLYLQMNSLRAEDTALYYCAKVGRGGNYFDYWGQGTLVTVSS", "log10 Kd, replicates": "ND ND ND", "control signals": "2/9 (4.92)"}
{"VH": "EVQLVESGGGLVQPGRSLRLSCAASGFSFDDYAVHWVRQAPGKGLEWVSGISWNSGSIGYADSVKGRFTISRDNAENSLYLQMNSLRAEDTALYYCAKVGRGGGYFDGWGQGTLVTVSS", "log10 Kd, replicates": "2.41 3.91 3.65", "control signals": "2/9 (3.65)"}
{"VH": "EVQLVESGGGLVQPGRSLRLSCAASGFTFDDYAMWWVRQAPGKGLEWVSGISWNSGSIGYADSGKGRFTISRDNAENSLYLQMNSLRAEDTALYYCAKVGRGGGYFDYWGQGTLVTVSS", "log10 Kd, replicates": "ND ND ND", "control signals": "2/9 (4.59)"}
{"VH": "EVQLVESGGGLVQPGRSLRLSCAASGFTFDDYAMHWVRQAPGKGLEWVSGISWNQGSIGKADSVKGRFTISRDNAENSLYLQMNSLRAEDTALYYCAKVGRGGGYFDYWGQGTLVTVSS", "log10 Kd, replicates": "5.77 ND ND", "control signals": "3/9 (4.17)"}
{"VH": "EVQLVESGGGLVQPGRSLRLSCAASGFTFDDYAMHWVRQAPGKGLEWVSGIMWNSGSIGYADSCKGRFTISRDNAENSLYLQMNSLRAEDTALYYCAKVGRGGHYFDYWGQGTLVTVSS", "log10 Kd, replicates": "ND ND ND", "control signals": "1/9 (4.13)"}
{"VH": "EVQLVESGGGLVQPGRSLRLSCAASGFTCDDYAMHWVRQAPGKGLEWVSGISWNSGSIGAADSVKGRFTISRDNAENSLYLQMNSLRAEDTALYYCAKVGRGTGYFDYWGQGTLVTVSS", "log10 Kd, replicates": "4.06 ND ND", "control signals": "2/9 (4.01)"}
{"VH": "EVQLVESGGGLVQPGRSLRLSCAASGFTFDDYAMGWVRQAPGKGLEWVSGISWNWGLIGYADSVKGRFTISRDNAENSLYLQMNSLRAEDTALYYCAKVGRGGGYFDYWGQGTLVTVSS", "log10 Kd, replicates": "ND ND ND", "control signals": "0/9"}
{"VH": "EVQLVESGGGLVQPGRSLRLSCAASGFTFDDYAMHWVRQAPGKGLEWVSIISWNSGSIGYARSVKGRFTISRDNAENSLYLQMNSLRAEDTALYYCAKVGRGGGYFVYWGQGTLVTVSS", "log10 Kd, replicates": "ND ND ND", "control signals": "0/9"}
{"VH": "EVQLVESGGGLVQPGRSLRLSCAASGFTFDDYFMHWVRQAPGKGLEWVSGIEWNSGTIGYADSVKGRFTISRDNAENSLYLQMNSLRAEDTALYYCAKVGRGGGYFDYWGQGTLVTVSS", "log10 Kd, replicates": "ND ND ND", "control signals": "0/9"}
{"VH": "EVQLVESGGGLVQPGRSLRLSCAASGFTFDDYAMHWVRQAPGKGLEWVSGISWDSGSIPYVDSVKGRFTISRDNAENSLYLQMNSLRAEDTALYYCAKVGRGGGYFDYWGQGTLVTVSS", "log10 Kd, replicates": "4.80 5.74 5.32", "control signals": "6/9 (4.72)"}
{"VH": "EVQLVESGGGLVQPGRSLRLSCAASGFTFDYYAMHWVRQAPGKGLEWVSGISWNSGSIGYADSVKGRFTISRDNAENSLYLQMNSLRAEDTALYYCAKMGRMGGYFDYWGQGTLVTVSS", "log10 Kd, replicates": "ND ND ND", "control signals": "0/9"}
{"VH": "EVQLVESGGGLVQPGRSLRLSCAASGFKGDDYAMHWVRQAPGKGLEWVSGISWVSGSIGYADSVKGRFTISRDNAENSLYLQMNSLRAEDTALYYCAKVGRGGGYFDYWGQGTLVTVSS", "log10 Kd, replicates": "5.34 4.37 ND", "control signals": "3/9 (4.79)"}
{"VH": "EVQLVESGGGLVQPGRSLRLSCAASGYTFDDYAMHWVRQAPGKGLEWVSGISFNSGSIAYADSVKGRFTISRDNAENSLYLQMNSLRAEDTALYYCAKVGRGGGYFDYWGQGTLVTVSS", "log10 Kd, replicates": "ND ND ND", "control signals": "0/9"}
{"VH": "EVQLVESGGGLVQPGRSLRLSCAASGFTFDDYAMHWVRQAPGKGLEWVSGISWNSGQCGYADPVKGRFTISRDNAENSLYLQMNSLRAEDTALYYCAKVGRGGGYFDYWGQGTLVTVSS", "log10 Kd, replicates": "ND ND ND", "control signals": "0/9"}
{"VH": "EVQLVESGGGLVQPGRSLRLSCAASGFTFGDYAMHWVRQAPGKGLEWVSSISWNSGSIGYADSVKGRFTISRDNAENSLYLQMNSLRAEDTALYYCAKVTRGGGYFDYWGQGTLVTVSS", "log10 Kd, replicates": "5.05 ND 4.71", "control signals": "2/9 (4.08)"}

The 2 strongest on average among those seen in every replicate, once more:

VH,"log10 Kd, replicates",control signals
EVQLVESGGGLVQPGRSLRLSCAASGFSFDDYAVHWVRQAPGKGLEWVSGISWNSGSIGYADSVKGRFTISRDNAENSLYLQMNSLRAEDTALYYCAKVGRGGGYFDGWGQGTLVTVSS,2.41 3.91 3.65,2/9 (3.65)
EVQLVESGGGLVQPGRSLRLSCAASGFTFDDYAMHWVRQAPGKGLEWVSGISWDSGSIPYVDSVKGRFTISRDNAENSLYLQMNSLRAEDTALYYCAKVGRGGGYFDYWGQGTLVTVSS,4.80 5.74 5.32,6/9 (4.72)